Biological target: T1, Human Leukocyte Elastase (HLE) (Homo sapiens, UniProt P08246)
T1 sequence (P08246 30-247 limits assumed): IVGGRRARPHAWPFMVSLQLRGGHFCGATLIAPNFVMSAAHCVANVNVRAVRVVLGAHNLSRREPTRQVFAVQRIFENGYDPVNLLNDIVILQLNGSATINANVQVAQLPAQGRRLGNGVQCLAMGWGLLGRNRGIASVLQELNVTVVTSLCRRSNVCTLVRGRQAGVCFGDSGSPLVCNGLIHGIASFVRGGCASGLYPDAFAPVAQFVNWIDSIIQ
Test: Inhibition of Human Leukocyte Elastase (HLE), hydrolysis of Methoxysuccinyl-Ala-Ala-Pro-Val-nitroanilide
Format: biochemical
Conditions: tris-HCl buffer pH 8.0, absorption at 410 nm, read-out: Inhibition of Elastase IC50, [Molar]
Description: Several biochemical and animal model tests can be used to examine the ability of the derivatives of the invention to prevent or alleviate the harmful biological action of elastase. The biochemical assays permit direct measurement of drug controlled inhibition of elastase fragmentation of proteins. […] In these tests, protease reaction with the substrate is measured in the presence and absence of the drug to be tested. Inhibition of protease action is indicated by a decrease in the amount of substrated fragmented. The basic parameters for such biochemical assays have been reported in the literature: J. Biol. Chem., 255, 5435 (1980); Biochem. Biophys Acta., 268, 257 (1973); Anal. Biochem. 48,9 (1972); and Biochemistry, 20, 3675 (1981). EXAMPLE 42 Inhibition of Human Leukocyte Elastase (HLE) This test measures the rate of hydrolysis of Methoxysuccinyl-[…]-nitroanilide by HLE in the presence and absence of the compound to be tested. The procedure used is as follows. The following stock solutions are prepared: […] 2. a dimethylsulfoxide solution of the nitroanilide peptide (2 m mole), 3. tris-HCl buffer (0.2M,pH 8.0) and […] […] The cuvette was capped, slightly shaken and placed in the light chamber of a recording colorimeter where the increase in absorption at 410 nm. due to liberated nitroaniline was measured. […]

- IC50: 83 nM
SMILES: CC(C)(C)C(=O)Oc1ccc(S(=O)(=O)c2ccc(OC(=O)C(C)(C)C)cc2)cc1 [Example 17a, 4,4'-dipivaloyloxy-diphenylsulfone]

— patent publication US4801610A, “Phenolic ester derivatives as elastase inhibitors” (G. D. Searle & Co., priority 1987, dated 1989)
